In this experiment the test system is breast cancer cell line MX-1. As to the kind of experiment: MX-1 cell line proliferation assay, Method A. The experiment is classed as cell-based. The note with it: Homo sapiens, MX1; MX-1 cells, 96-well, 72 hours, Cell Titer Glo; read-out: Cellular proliferation: EC50 Method A. The method, then:
The impact of compounds of the Examples on cancer cell proliferation was determined using the breast cancer cell line MX-1 (ATCC) in a 3-day proliferation assay and the data are reported in Table 1.
MX-1 cells were maintained in RPMI 1640 medium (Sigma) supplemented with 10% FBS at 37° C. and an atmosphere of 5% CO2. For compound testing, MX-1 cells were plated in 96-well black bottom plates at a density of 5000 cells/well in 90 μL of culture media and incubated at 370 overnight to allow cell adhesion and spreading. Compound dilution series were prepared in DMSO via a 3-fold serial dilution from 3 mM to 0.1 μM. The DMSO dilution series were then diluted 1:100 in phosphate buffered saline, and 10 μL of the resulted solution were added to the appropriate wells of the MX-1 cell plate. The final compound concentrations in the wells were 3, 1, 0.3, 0.1, 0.03, 0.01, 0.003, 0.001, 0.0003 and 0.0001 μM.
Luminescence readings from the Cell Titer Glo assay were normalized to the DMSO treated cells and analyzed using the GraphPad Prism software with sigmoidal curve fitting to obtain ECs50s. The minimum significant ratio (MSR) was determined to evaluate assay reproducibility (Eastwood et al., (2006) J Biomol Screen, 11: 253-261). The overall MSR was determined to be 2.1 and a moving MSR (last six run MSR overtime) has been <2.
In general terms: ATP-based viability assays read luminescence as a measure of living cells.

Structures are written as SMILES.

Our source for the EC50 values is patent US10131657B2, “Bromodomain inhibitors” (AbbVie Inc., priority 2013, dated 2018).

Take `CC(=O)Nc1ccc(CNc2cccc(Oc3ccc(S(C)(=O)=O)cc3-c3cn(C)c(=O)c4[nH]ccc34)c2)cc1` [Example 78, N-{4-[({3-[2-(6-methyl-7-oxo-6,7-dihydro-1H-pyrrolo[2,3-c]pyridin-4-yl)-4-(methylsulfonyl)phenoxy]phenyl}amino)methyl]phenyl}acetamide]: the EC50 is 14 nM.

In the case of `CCS(=O)(=O)c1ccc(OCC2CC2(F)F)c(-c2cn(C)c(=O)c3[nH]c(C#CCN(C)C)cc23)c1` (centres unmarked) [Example 63, 4-{2-[(2,2-difluorocyclopropyl)methoxy]-5-(ethylsulfonyl)phenyl}-2-[3-(dimethylamino)prop-1-yn-1-yl]-6-methyl-1,6-dihydro-7H-pyrrolo[2,3-c]pyridin-7-one], the EC50 was 9.4 nM.
